Experimental data taken from ChEMBL document CHEMBL4610007, “Design and synthesis of boron-containing diphenylpyrimidines as potent BTK and JAK3 dual inhibitors” (Bioorg Med Chem, 2020).

Sequences of proteins named here, by UniProt entry; tags and fusion partners are left off. A change or cut given only in a name is not applied to a line headed by its entry.
UniProt Q06187: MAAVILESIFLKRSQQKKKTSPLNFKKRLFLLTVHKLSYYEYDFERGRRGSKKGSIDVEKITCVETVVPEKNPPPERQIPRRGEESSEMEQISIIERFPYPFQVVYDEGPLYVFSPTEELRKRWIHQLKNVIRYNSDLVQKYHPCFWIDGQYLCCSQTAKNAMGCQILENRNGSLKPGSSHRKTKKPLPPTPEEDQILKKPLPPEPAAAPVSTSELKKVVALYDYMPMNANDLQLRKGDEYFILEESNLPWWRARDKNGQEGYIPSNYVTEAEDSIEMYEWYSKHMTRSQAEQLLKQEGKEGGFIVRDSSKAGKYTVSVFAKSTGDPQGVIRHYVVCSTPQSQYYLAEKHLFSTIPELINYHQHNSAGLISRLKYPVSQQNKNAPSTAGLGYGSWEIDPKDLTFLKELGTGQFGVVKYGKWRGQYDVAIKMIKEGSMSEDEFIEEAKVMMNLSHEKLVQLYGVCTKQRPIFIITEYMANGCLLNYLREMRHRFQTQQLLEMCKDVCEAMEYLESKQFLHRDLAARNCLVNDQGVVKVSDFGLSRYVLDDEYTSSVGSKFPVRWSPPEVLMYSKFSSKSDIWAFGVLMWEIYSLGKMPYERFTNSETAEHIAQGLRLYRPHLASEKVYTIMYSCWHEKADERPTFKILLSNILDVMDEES

Target: Tyrosine-protein kinase BTK (Homo sapiens, UniProt Q06187)

IC50: 9.8 nM
SMILES: C=CC(=O)Nc1cccc(Nc2nc(Nc3ccc(OCCOC)cc3)ncc2F)c1 [SPEBRUTINIB]
